Substrate: C=C(OP(=O)(O)O)C(=O)O
Assay: purified protein, by the assay type
Details: other: free enzyme (ratio 0); 2.5 nM PykA; apparent; pH 8.0

B1: E. coli BL21(DE3) pyruvate kinase PykA (EC 2.7.1.40), N-terminal (His)6, SEQ ID NO 1, free in solution (Escherichia coli K-12) (protein)
chain: MGSSHHHHHHSSGLVPRGSHMSRRLRRTKIVTTLGPATDRDNNLEKVIAAGANVVRMNFSHGSPEDHKMRADKVREIAAKLGRHVAILGDLQGPKIRVSTFKEGKVFLNIGDKFLLDANLGKGEGDKEKVGIDYKGLPADVVPGDILLLDDGRVQLKVLEVQGMKVFTEVTVGGPLSNNKGINKLGGGLSAEALTEKDKADIKTAALIGVDYLAVSFPRCGEDLNYARRLARDAGCDAKIVAKVERAEAVCSQDAMDDIILASDVVMVARGDLGVEIGDPELVGIQKALIRRARQLNRAVITATQMMESMITNPMPTRAEVMDVANAVLDGTDAVMLSAETAAGQYPSETVAAMARVCLGAEKIPSINVSKHRLDVQFDNVEEAIAMSAMYAANHLKGVTAIITMTESGRTALMTSRISSGLPIFAMSRHERTLNLTALYRGVTPVHFDSANDGVAAASEAVNLLRDKGYLMSGDLVIVTQGDVMSTVGSTNTTRILTVE
  Km: 1.25 ± 0.1 mM
  Vmax: 3.78 µM/min

Source: patent US20250197842A1, “IMPROVING ENZYMATIC CHANNELING EFFICIENCY VIA MIXED NANOPARTICLE SCAFFOLDS WITHIN SELF-ASSEMBLED NANOPARTICLE ENZYME CLUSTERS” (The Government of the United States of America, as …, priority 2023, published 2025)
